Amino acid sequences for entries named in this document (tags omitted). Residues count along the entry.
UniProt P22303, 32-614 limits assumed: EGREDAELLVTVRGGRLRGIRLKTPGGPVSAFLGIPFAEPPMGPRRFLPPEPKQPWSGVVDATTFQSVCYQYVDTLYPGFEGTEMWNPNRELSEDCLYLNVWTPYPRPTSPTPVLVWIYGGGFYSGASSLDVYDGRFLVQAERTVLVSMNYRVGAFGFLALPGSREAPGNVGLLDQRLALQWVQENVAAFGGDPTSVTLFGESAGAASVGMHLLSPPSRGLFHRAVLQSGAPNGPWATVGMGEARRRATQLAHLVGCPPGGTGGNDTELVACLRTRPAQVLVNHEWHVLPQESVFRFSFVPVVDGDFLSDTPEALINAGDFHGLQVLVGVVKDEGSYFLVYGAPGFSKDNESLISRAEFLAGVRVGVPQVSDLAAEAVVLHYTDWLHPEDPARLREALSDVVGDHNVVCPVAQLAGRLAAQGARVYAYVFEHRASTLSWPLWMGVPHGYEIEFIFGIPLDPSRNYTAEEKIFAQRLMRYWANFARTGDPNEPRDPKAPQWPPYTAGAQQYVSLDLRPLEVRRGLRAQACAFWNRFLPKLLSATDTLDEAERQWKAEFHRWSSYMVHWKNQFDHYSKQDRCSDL

In US9586925B2 (priority 2013, dated 2017):

Target: Human recombinant acetylcholinesterase (Homo sapiens (Human), UniProt P22303)
Experiment: biochemical

CCN(C)C(=O)Oc1cc(C(C)N(C)C)cc2oc(=O)c3ccccc3c12 (racemic) [FAR-01-2CA, (±)-3-(1-(dimethylamino)ethyl)-6-oxo-6H-benzo[c]chromen-1-yl ethyl(methyl)carbamate] was tested, and the IC50 was 40 µM.
